Hits are enriched below; roughly 0.59% of the tested compounds scored in any of these assays.
Rango dissoc inh – prevents RanGTP from dissociating the Rango-importin beta complex. Biochemical FRET Rango-importin beta, RanGTP-induced dissociation. Potency, µM (top dose mostly 46.1 µM). hit rate 0.071% among 340,000; also: nearly all actives have a fitted effect of over 45% in size
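Rango (0.1 uM)–importin beta (0.25 uM) complex; RanGTP-RCC1 trigger; 45 min RT; CFP/YFP FRET read.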
PKM2 act – PKM2 (human) enzyme activation; P14618; purified PKM2, Kinase-Glo ATP luminescence, activation; response scale: 0% is enzyme alone, no compound; Potency, µM (doses to about 57.5 µM), most hits filed as activators; hit rate 0.34% among 260,000; active = well fitted activation curve with a large enough effect; inconclusive = small, poorly fitted or top-dose-only effect; inactive = no such curve, though single readings can be large or run the other way; also: nearly all actives have a fitted effect of over 55% in size
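hPK-M2, >95% pure; 0.1 mM ADP / 0.5 mM PEP final; imidazole pH7.2 buffer w/ 7 mM MgCl2, 50 mM KCl; 1 h RT; Kinase-Glo lum. Intermediate enzyme activity for dual inhibitor/activator qHTS.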
IL2 activator – activates IL-2 in a cell-based reporter assay | IL-2 activation reporter assay, cell-based qHTS; stimulated with anti-CD3/CD4/CD28 beads; in transgenic mouse T cells | activation, % (series mostly up to about 46 µM) | hit rate 0.065% among 360,000 | AID 652025; in the data active = activation above about 50%; inconclusive = mostly about 30% to 49%
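Using fluorescent plate cytometry, EGFP and DsRed are detected in transgenic mouse T cells stimulated 18 h at 37 degrees C with antibody-coated beads after 60 min compound pretreatment.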
Rango-impB inh – Rango-importin beta binding inhibition; Q14974; Rango CFP/YFP FRET sensor + importin beta, 45 min; Potency, µM (highest dose often 92.2 µM); hit rate 0.031% among 340,000; also: nearly all actives have a fitted effect of over 15% in size
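Inhibition scored from the CFP 486 nm/YFP 530 nm FRET ratio 45 min after adding 0.125 microM importin beta to 50 nM Rango biosensor preincubated 5 min with compound (room temperature, PBS with DTT, Tween-20, BSA). No-importin wells as positive control.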
AT treatment – candidate therapy for ataxia-telangiectasia | F2112 A-T fibroblasts, KAP-1 phosphorylation AlphaLISA; neocarzinostatin DNA damage 30 min before lysis | Potency, µM (series often up to 57.5 µM), actives largely listed as activators | hit rate 0.19% among 320,000 | AID 485349; active = well fitted activation curve with a large enough effect; inconclusive = small, poorly fitted or top-dose-only effect; inactive = no such curve, though single readings can be large or run the other way; also: nearly all actives have a fitted effect of over 45% in size
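hTERT-immortalized A-T patient fibroblasts (F2112), 500 cells/well in OPTI-MEM, 1% FBS, got compounds for 60 min, then NCS for 30 min at 37C. Lysates were then assayed for phospho-KAP-1 by AlphaLISA (anti-pKAP1 donor, anti-KAP1 acceptor beads), 6 hr at 25C.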
Hits are given with their value; . = inactive; ? = inconclusive; / = no result; ! = not confirmed by another sample; [ ] = remark or other dose. Unless noted, calls follow the shape of the full dose curve.

SMILES | Rango dissoc inh | PKM2 act | IL2 activator | Rango-impB inh | AT treatment
NS(=O)(=O)c1ccc(N2N=C(c3ccccc3)CC2c2cccc(F)c2)cc1 (stereo unspecified) | . | . | . | . | 40µM
COc1ccc(C2CC(c3ccc(Cl)cc3)=NN2c2ccc(S(N)(=O)=O)cc2)cc1 (stereo unspecified) | ? | / | . | ? | .
NS(=O)(=O)c1ccc(N2N=C(c3ccc(Br)cc3)CC2c2ccc(F)cc2)cc1 (stereo unspecified) | ? | . | . | ? | 40µM
NS(=O)(=O)c1ccc(N2N=C(c3ccccc3)CC2c2cccc(Br)c2)cc1 (stereo unspecified) | . | / | . | ? | .
CNc1n[nH]c(-c2ccccc2)n1 | / | / | . | / | /
CC(CN1CCCCC1)OC(=O)COc1ccc(Br)cc1 (stereo unspecified) | . | .[11.5 µM] | . | . | .
COc1cc(/C=c2\s/c(=C(/C#N)C(=O)N3CCCC3)n(-c3ccccc3)c2=O)ccc1O | ? | . | . | ? | .
Cc1ccc(/C=c2\s/c(=C(/C#N)C(=O)N3CCCC3)n(Cc3ccco3)c2=O)s1 | 8.2µM | ? | . | ? | .
O=C(Cc1ccc(Cl)cc1Cl)OCC(=O)N1CCCCC1 | . | . | . | . | .
Cc1ccc(S(=O)(=O)N2CCOCC2)cc1NC(=O)COC(=O)c1ccco1 | / | / | 81 | / | /
O=C(COC(=O)c1ccco1)Nc1cc(S(=O)(=O)N2CCOCC2)ccc1Cl | . | / | . | . | .
CCS(=O)(=O)Nc1ccc(C2=NN(C(=O)c3ccco3)C(c3ccc(C)cc3)C2)cc1 (stereo unspecified) | . | 7.9µM | . | ? | .
CS(=O)(=O)Nc1ccc(C2=NN(C(=O)c3ccco3)C(c3ccccc3)C2)cc1 (stereo unspecified) | . | 14µM | . | . | .
Cc1ccc(C2CC(c3ccc(NS(C)(=O)=O)cc3)=NN2C(=O)c2ccco2)cc1 (stereo unspecified) | . | ? | . | . | .
CN(C)C/C=C(/c1ccc(Br)cc1)c1cccnc1 | . | / | . | . | /
COC(=O)c1c(N2C(=O)CC(Sc3ccccc3C(=O)O)C2=O)sc2c1CCCC2 (stereo unspecified) | . | 7.9µM | . | . | .
CCOC(=O)c1cc(CC)sc1N1C(=O)CC(Sc2ccccc2C(=O)O)C1=O (stereo unspecified) | . | 25µM | . | . | .
CCOC(=O)c1cc(CC)sc1N1C(=O)CC(Sc2ncccc2C(=O)O)C1=O (stereo unspecified) | . | . | . | ? | .
O=C(CN(C(=O)CNC(=O)c1cccs1)c1cccc(F)c1)NC1CCCC1 | . | / | . | . | .
CCn1c(N)c(C(=O)NCc2ccc3c(c2)OCO3)sc1=S | . | 5µM | . | . | .
Cc1cccc(-n2nnnc2SCC(=O)Nc2cccc(S(N)(=O)=O)c2)c1 | . | 5µM | . | . | .
CC(=O)Nc1ccc(NC(=O)CSc2nnnn2-c2ccc(F)cc2)cc1 | . | / | . | . | 3.2µM
CCCn1c(-c2ccc(F)cc2)nc2c(NCCCN(CC)CC)nc(C)nc21 | / | . | / | / | /
CNc1nc(N/N=C/c2cc3c(cc2[N+](=O)[O-])OCO3)nc(Nc2ccccc2)n1 | . | . | . | 65µM | .
CC1=CC(C)(C)n2c(O)c(N=N)c3c(C)ccc1c32 | . | . | . | . | 32µM
SMILES | Rango dissoc inh | PKM2 act | IL2 activator | Rango-impB inh | AT treatment
Cc1ccc(/C=N/NC(=O)Cn2nnc(N)n2)cc1 | . | . | . | . | 25µM
Cn1c(=O)c(=O)n(C)c2cc(S(=O)(=O)N3CCc4ccccc43)ccc21 | . | 2µM | . | ? | .
COc1ccc(NC(=O)CCNS(=O)(=O)c2cc(Br)ccc2Br)cc1S(N)(=O)=O | . | . | . | . | .
COc1ccccc1-c1cccc(-c2nc(C(=O)Nc3nccs3)cc3c2[C@H](CCO)N(C(C)=O)C3)c1 | / | / | . | / | /
O=C(O)CCCN1C(=O)/C(=C/c2ccc(-c3nc4ccccc4s3)o2)SC1=S | ? | . | . | ? | .
O=C(O)CCCCCN1C(=O)/C(=C\c2ccc(-c3ccc(Cl)cc3)o2)SC1=S | . | 32µM | . | ? | .
Cc1cc(N2CCN(S(=O)(=O)c3ccc4c(c3)OCCO4)CC2)n2ncnc2n1 | . | 25µM | . | . | /
Cc1cccc(N2CCN(S(=O)(=O)c3ccc(S(=O)(=O)N4CCCC4)cc3)CC2)c1C | . | . | . | . | .
Cc1cc(N2CCN(S(=O)(=O)c3ccc(Br)cc3)CC2)n2ncnc2n1 | . | . | . | . | .
COc1ccc(S(=O)(=O)N2CCc3ccccc3C2)cc1OC | . | . | . | . | .
Cc1cccc(N2CCN(S(=O)(=O)c3ccc4c(c3)OCCO4)CC2)c1C | 18µM[inhibitor] | . | . | ? | .
COc1cc2c(cc1OC)CN(S(=O)(=O)c1ccc3c(c1)OCCO3)CC2 | . | 8.9µM | . | . | .
COC(=O)C1=C(C(=O)OC)[C@@H]2Nc3ccccc3[C@@]23C[C@@H](C(=O)OC)N(S(=O)(=O)c2ccc(C#N)cc2)C3=N1 | / | .[11.5 µM] | / | / | /
CCC(C)NC(=O)C1CCC(=O)N1CCc1ccccc1 (stereo unspecified) | . | / | . | . | .
Cn1cnnc1SCC(=O)N1N=C2/C(=C/c3ccco3)CCCC2C1c1ccco1 (stereo unspecified) | . | 28µM | . | . | .
Cc1cccc(NC(=O)NNC(=O)c2cc3occc3[nH]2)c1C | . | / | . | . | .
Cc1ccc(-n2c(SCC(=O)N/N=C/c3ccccc3C(=O)O)nnc2-c2ccc(Cl)cc2)cc1 | . | . | . | . | .
Cc1ccc(-c2nnc(SCC(=O)N/N=C/c3ccccc3C(=O)O)n2-c2ccc(Cl)cc2)cc1 | . | 28µM | . | . | .
Cc1ccccc1N=C(c1ccccc1)C1C(=O)c2ccccc2C1=O | / | / | . | / | /
CCCCCCCCCCCCCCCC[n+]1cccc(C(=O)N(CC)CC)c1 | ? | . | . | 73µM! | .
CCC(CC)COC(=O)C1=C(C)NC(=O)NC1c1ccccc1Br (stereo unspecified) | . | . | . | . | .
Nc1nc(NCCO)nc(N2CCCCCC2)c1[N+](=O)[O-] | . | / | . | . | .
OCCN(CCO)c1nc(N2CCCCC2)c2nc(N(CCO)CCO)nc(N3CCCCC3)c2n1 | ? | . | . | ? | 32µM
CC(C)C(=O)Nc1cccc(COc2ccccc2CN(Cc2ccccc2)C(=O)OC(C)(C)C)c1 | . | / | . | . | /
Cc1cccc2cc(C#N)c(N3CCOCC3)nc12 | 18µM | . | . | ? | .
COc1cccc(S(=O)(=O)N(C)C[C@@H]2OCc3cnnn3CCCC(=O)N([C@@H](C)CO)C[C@@H]2C)c1 | / | / | . | / | /

Bioassay records (PubChem)
